Experimental data from US5292868A, “Chelating agents for attaching metal ions to proteins” (Akzo N.V., priority 1993, dated 1994).

Test: Stability of In-111 labeled HSA-chelate conjugates by DTPA chase technique in PBS at 37° C.
Format: physicochemical
Details: HSA-IDAC and HSA-DTPA, 0.05M PBS pH 7.2, DTPA chase
Protocol: Under similar experimental conditions, HSA-DTPA-^111 In loses ^111 In at the rate of 10% per day. […] However, IDAC can be used for short lived isotopes such as ^99m Tc and ^55 Co (half-life approximately 6h.), since in these cases short term stability is more important.
For stability studies, HSA-IDAC or HSA-LiLo conjugate was first prepared by reacting HSA (30 mg/ml, 0.05M PBS solution, pH7.2) with LiLo or IDAC (HSA: LiLo/IDAC molar ratio 1:10) at 37° C. for 2 hours. Unbound chelate was removed by gel filtration chromatography (G-50 Sephadex, Pharmacia). The conjugate (HSA-LiLo, HSA-IDAC) was collected and the concentration of the protein determined by absorption at 280 nm. […]
The conjugate was labeled with In-111 in a buffer (0.05M citrate/0.5 M acetate, pH 5.5) DTPA was added to bind any unbound Indium-111, and the labelled conjugate was purified by G-50 or G-25 gel filtration chromatography. The purity of the immunoconjugate was determined by ITLC in PBS buffer using Gelman ITLC-SG chromatography paper.
Stability studies were carried out in 0.05M PBS buffer pH 7.2 at 37° C. […] Thin layer chromatography analysis using ITLC-SG strip (Gelman Sciences) in PBS buffer (0.05M, pH 7.2) was carried out, and the ITLC strip was cut into two pieces, and the indium (111) activity was determined using a gamma counter. […]

| Substance | rate of loss of 111In from HSA conjugate |
| --- | --- |
| HSA-DTPA-^111 In: human serum albumin reacted with DTPA dianhydride, labeled with Indium-111 [reference compound] | 10 % per day |
| HSA-IDAC-^111 In: human serum albumin conjugated with IDAC, labeled with Indium-111 | approximately 20 % per day |
